This data set can be described thus: Relative thermodynamic solubility in water at RT by HPLC. It is filed as physicochemical. Conditions: for Intensity test average: average of solubility tests #1 and #2, HPLC ETP peak area; for Solubility test #1 (area counts) / Solubility test #2 (area counts): saturated water solution, 24 h at RT, HPLC ETP peak area; for Solubility test #2 (area counts): repeat. How it is done: The relative solubility of the above mentioned 4 ETP monoethanolamine salt Forms was studied in water at RT. The validity of any solubility measurement requires that the crystalline form must remain stable with respect to any phase conversion taking place during the determination of the equilibrium solubility.
As the solubility of these forms was very low in water, a suspension (10 mg in 1 mL of water) was performed in water at RT in order to afford a saturated solution. This suspension was stirred 24 h at RT in order to reach the equilibrium. Then, a sample was filtered and the resulting filtrate was analysed by HPLC by duplicate. The average peak area of ETP gave a relative value of the thermodynamic solubility of each form that can be compared with each other. The solids recovered after filtration were also analysed by XRPD to check that no crystalline phase transformation occurred during the slurring.
The following HPLC conditions were used to determine the relative solubility (due to their short analysis time and good response): • Column: C18 Zorbax Eclipse (XDB), 150×4.6 mm, 5 μm • Sample concentration: Saturated water solution of the ETP monoethanolamine salt • Mobile phase: ACN:MeOH:H2O (55:35:10) at pH=6.0+/−0.2 • Temperature: 27° C. • Flow rate: 1 mL/min • UV detector wavelength: 230 nm • Injection: 5 μL • Run time: 10 min
HPLC ETP peak area in each of the different forms analysed was measured in order to establish their relative solubility. The HPLC analyses were performed by duplicate for each ETP monoethanolamine salt.

From US11267791B2, “Highly stable crystalline Eltrombopag monoethanolamine salt form D1” (F.I.S.—FABBRICA ITALIANA SINTETICI S.P.A., priority 2018, dated 2022) come the findings set out here.

With “Eltrombopag monoethanolamine salt [Form H]”, the Intensity test average worked out at 4497, the “Solubility test #1 (area counts)” value came out at 3963 area counts and the “Solubility test #2 (area counts)” value is listed as 5031 area counts.
For “Eltrombopag monoethanolamine salt [Form D]”, in that order: 8066, 7930 area counts and 8201 area counts.
For “Eltrombopag monoethanolamine salt [Form H2]”, in that order: 2867, 3068 area counts and 2665 area counts.
